One substance from patent US20240091235A1, “USE AS SELECTIVE AGONIST OF MELANOCORTIN-4 RECEPTOR” (priority 2020, published 2024) can be followed below.

The chains behind the UniProt entries cited, without tags or fusion partners.
UniProt P32245, whole entry: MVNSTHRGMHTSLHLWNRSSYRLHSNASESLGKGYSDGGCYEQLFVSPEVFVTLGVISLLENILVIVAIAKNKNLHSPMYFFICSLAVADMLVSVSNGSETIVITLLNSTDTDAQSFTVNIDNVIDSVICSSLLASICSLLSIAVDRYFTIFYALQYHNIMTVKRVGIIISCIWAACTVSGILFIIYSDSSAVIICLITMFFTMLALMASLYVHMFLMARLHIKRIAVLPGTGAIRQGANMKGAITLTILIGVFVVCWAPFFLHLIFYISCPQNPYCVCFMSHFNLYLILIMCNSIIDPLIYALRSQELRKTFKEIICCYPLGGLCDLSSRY

Broadly, the EC50 is the concentration giving half of the maximal effect.

Holding throughout (type): cell-based
Assay [1] deals with T1, melanocortin-4 receptor (MC4R) (Homo sapiens, UniProt P32245).
T1 construct: expressed in transfected cells
In words: Luciferase assay (CRE-LUC), HEK MC4R-Luc cells. The following applies: luminescence relative to 10 μM NDP-α-MSH. The method, then: In order to measure the agonist ability for melanocortin-1 receptor (MC1R) and melanocortin-4 receptor (MC4R), a cell line that permanently expresses MC1R, MC4R and the luciferase gene (CRE-LUC) under the control of CRE (cAMP response element) was established.
After a mammalian cell expression vector (pCDNA3 (Neo)) (Invitrogen) containing the MC1R and MC4R genes was prepared, human embryonic kidney (HEK) cell lines were transformed by using Lipofectamine 2000 (Invitrogen) together with a vector (pCRE-Luc)(Stratagen) expressing a luciferase gene (CRE-LUC) under the control of a cAMP response element (CRE). […] Each well was treated with 50 μL of a Bright-Glo luciferase reagent (Promega) and left at room temperature for 15 minutes, and then the luminescence of each well was measured by using a luminometer (Victor).
HEK MC1R-Luc cells and HEK MC4R-Luc cells were added to each well of a 96-well luminometer cell culture plate (Costar) to a size of 2.5×10^4 cells in 100 μL of a culture medium and then incubated in a 37° C. incubator in the presence of 6% CO2 for 18 hours. […] Each well was treated with 50 μL of a Bright-Glo luciferase reagent (Promega) and left at room temperature for five minutes, and then the luminescence of each well was measured by using a luminometer (Victor). […] The measurements were measured using statistical software (Prizm).

For assay [2], the target named is T2, MC4R (Homo sapiens, UniProt P32245). In words: cAMP Hunter Gs-coupled cAMP assay (CHO-K1 cell line), MC4R. More on the design: expressed in transfected cells; host or cells: CHO-K1 (cAMP Hunter Gs-coupled cell line). The following applies: 30 minutes at 37° C. The method, then:
After cAMP Hunter Gs-coupled cell lines (CHO-K1 cell line) in which each of MC1R and MC4R was overexpressed were established so that the increase in the cAMP level in cells due to agonist reaction was measurable, the cells were inoculated into each well of a white cell culture plate and incubated for 24 hours in a 37° C. incubator in the presence of 5% CO2. After the incubation, the medium was removed, and 15 μL of a 2:1 HBBS/10 mM HEPES:cAMP XS+Ab reagent was added. After 5 μL of the sample diluted 4 times with buffer was added, the vehicle concentration was set to 1%, and the MC4R agonist compound diluted at each step concentration was added, followed by reaction at 37° C. for 30 minutes. The activity (%) of each agonist compound is expressed as 100%×(average RLU value of sample−average RLU value of vehicle control)/(average RLU value of max control−average RLU value of vehicle control), and the value was analyzed by CBIS data analysis suite (ChemInnovation, CA).

For assay [3], the target named is T2, MC4R. In words: Pathhunter eXpress β-arrestin assay (U2OS cell line), MC4R. More on the design: expressed in transfected cells; host or cells: U2OS (Pathhunter eXpress β-arrestin cell line). The following applies: read-out: EC50 (nM) β-Arrestin MC4R, 90 minutes at 37° C. An excerpt: A Pathhunter eXpress β-arrestin cell line (U2OS cell line) in which Prolink (PK)-tagged MC1R and MC4R, and enzyme acceptor (EA)-tagged β-arrestin were expressed together was established. When the MCR-PK portion of this cell line is activated, β-arrestin-EA is mobilized, and enzyme acceptor (EA) and Prolink (PK), which are the β-galactosidase enzyme fragments, interact. The activated enzyme hydrolyzes the substrate by β-galactosidase activity to produce a chemiluminescent signal, so that the activity can be measured. After the Pathhunter eXpress β-arrestin cell line (U2OS cell line) was incubated, the cells were inoculated into each well of the cell culture plate and incubated for 48 hours in a 37° C. incubator in the presence of 5% CO2. After the incubation, 5 μL of the sample diluted 5 times with buffer was added, the vehicle concentration was set to 1%, and the MC4R agonist compound diluted at each step concentration was added, followed by reaction at 37° C. for 90 minutes. The activity (%) of each agonist compound is expressed as 100%×(average RLU value of sample−average RLU value of vehicle control)/(average maximum value of control ligand−average RLU value of vehicle control), and the value was analyzed by CBIS data analysis suite (ChemInnovation, CA).

Turning to α-MSH [reference compound], the EC50 in assay [1] stood at 17.5 nM; in assay [2], 9.62 nM; in assay [3], 23.5 nM.
